## Antibody variant affinities, Ab-14 light chain, assay 1

Target: peptide PDVDLGDISGINAS, taken from heptad repeat 2 (HR2) of SARS-CoV-2 spike.

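The parent was found by panning a naive human phage display library on the peptide. AAYL50 was designed without a model: most single CDR substitutions and a random sample of double and triple ones. The scFvs were displayed on barcoded MATa yeast, the peptide on MATalpha yeast. The frequency of each diploid, read from paired DNA barcodes, reflects how well the two displayed proteins bind. The ratio of observed to expected reads was calibrated, replicate by replicate, on BCL2-family standards whose Kd was known from biolayer interferometry. Mating was done three times.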

Each scFv is VH, the linker GGGGSGGGGSGGGGS, VL, as in the parent Ab-14, and differs from it in the CDRs of the light chain only.
VH: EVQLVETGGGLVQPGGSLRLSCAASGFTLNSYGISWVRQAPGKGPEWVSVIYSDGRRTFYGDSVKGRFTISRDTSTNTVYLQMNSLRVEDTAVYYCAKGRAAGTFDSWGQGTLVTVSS
VL: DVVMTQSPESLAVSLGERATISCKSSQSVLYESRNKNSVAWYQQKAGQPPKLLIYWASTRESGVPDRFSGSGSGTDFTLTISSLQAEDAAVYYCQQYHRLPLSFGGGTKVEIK

The parent's light chain CDRs are KSSQSVLYESRNKNSVA, WASTRES, QQYHRLPLS; each variant's own CDRs replace them letter for letter.
Values are log10 of the apparent Kd in nM; lower means stronger binding.
The mean shown is taken over the replicates in which the pair was detected.
"nd" marks a missing value. The strain was present, yet no cells mated with the target were sequenced in that replicate, which points to weak or no binding.

| CDR-L1 | CDR-L2 | CDR-L3 | log10 Kd, replicates | mean log10 Kd (nM) | control signals |
|---|---|---|---|---|---|
| MSSQMVLYESRNKNSVA | WASTRES | QQYHRWPLS | nd / nd / nd | nd | 0/9 |
| KHSQSVLYESRNKNSVA | WASTRES | QCQHRLPLS | nd / nd / nd | nd | 1/9 (2.66) |
| KSSQSVQYESRNKNSVA | WASTRES | QQYHRPPLG | 3.86 / 2.25 / 2.22 | 2.78 | 3/9 (4.46) |
| KSSQSVLYESRNKNGVA | WADTRHS | QQYHRLPLS | 2.46 / 2.08 / 2.97 | 2.51 | 1/9 (3.14) |
| KSSQSVLYASRNKNSPA | WASTTES | QQYHRLPLS | nd / nd / nd | nd | 0/9 |
| KSSQSVLYYSRNKNSVA | WASTREI | QQYSRLPLS | 2.32 / 1.50 / 0.96 | 1.59 | 1/9 (4.56) |
| KSSQSVLIESRNKNSVA | WAQTRES | QQYHRLMLS | 1.05 / 1.23 / 1.24 | 1.18 | 0/9 |
| KSSQSVLYESRNKNSVA | WASTRPS | QKYHRLPLS | 4.39 / nd / nd | 4.39 | 2/9 (5.52) |
| KSSQSVLYESENKNSFA | WASTRES | QQYHRIPLS | nd / nd / nd | nd | 3/9 (3.49) |
| KSSQSVLYESFPKNSVA | WASTTES | QQYHRLPLS | nd / nd / nd | nd | 0/9 |
| KSSQSVLYESRNKNSVA | WASTRES | QRYHRLWLS | 1.13 / 1.44 / 1.25 | 1.27 | 2/9 (4.61) |
| KSSCSVLYESRNKNSVA | WASTRES | QQYIMLPLS | 1.28 / 1.38 / 1.42 | 1.36 | 1/9 (3.76) |
| KGSQSVLYPSRNKFSVA | WASTRES | QQYHRLPLS | 3.04 / 1.60 / 2.13 | 2.26 | 1/9 (2.15) |
| KSSQHVLNRSRNKNSVA | WASTRES | QQYHRLPLS | 2.58 / 2.85 / 2.35 | 2.59 | 7/9 (4.19) |
| KSSQSVLYESRNKNSVA | WASTRAS | QQYHRTPLG | 1.77 / 1.69 / 1.58 | 1.68 | 3/9 (3.53) |
| KSIQSVLYESRNKNSVA | WGSTRES | QQYHRFPLS | 1.17 / 1.28 / 1.40 | 1.28 | 0/9 |
| KSGQSVLYESRNKNSVA | WMSTRES | QQYWRLPLS | nd / nd / nd | nd | 0/9 |
| KSSRSVLYESRNKNSVA | WASTRES | QQYHRGPSS | nd / nd / nd | nd | 0/9 |
| KSSQSVLYESRNKNSVA | WASTREH | QQKHRLLLS | nd / nd / nd | nd | 0/9 |
| KSSSSVLYESRNKNLVI | WASTRES | QQYHRLPLS | nd / nd / nd | nd | 0/9 |
| KSSQSVLYESPNKNSVT | WASTRES | QQYHRLPLS | nd / nd / nd | nd | 0/9 |
| KCSQSVLYEGRNKNSVA | WLSTRES | QQYHRLPLS | 1.54 / 1.72 / 1.61 | 1.63 | 0/9 |
| KSSQKELYELRNKNSVA | WASTRES | QQYHRLPLS | 1.50 / 1.10 / 1.24 | 1.28 | 0/9 |
| KSDQSNLYESRNKNSVA | WASIRES | QQYHRLPLS | 0.08 / 0.39 / 0.25 | 0.24 | 5/9 (5.05) |
| KSSQSILYESRNKNSVA | WAITRES | QQYHRLPKS | nd / nd / nd | nd | 0/9 |
| KSSQSVQYESRNKNSWA | WASTRES | SQYHRLPLS | nd / 4.04 / nd | 4.04 | 5/9 (3.94) |
| KSSQSVEYELRNKNSVA | WASTRES | HQYHRLPLS | 1.68 / 1.86 / 1.56 | 1.70 | 0/9 |
| KSFQSVLYESVNKNSVA | WISTRES | QQYHRLPLS | nd / nd / nd | nd | 0/9 |
| KESQSVLYESRNKNSVA | WASTRES | QQYHRLPLS | 0.61 / 0.91 / 0.95 | 0.82 | 1/9 (3.81) |
| KSSQSILYESRNKNSVA | WASTRES | QNYHRLPLS | 2.24 / 2.31 / 2.37 | 2.31 | 1/9 (3.54) |
| KSSQSVLYESRNKNSVW | WASTRES | QQYHYLPLS | nd / nd / nd | nd | 0/9 |
| KSSQSVLYKSRNKNSVA | WDSTRES | QQYHRCPLS | 1.16 / 1.21 / 1.10 | 1.16 | 0/9 |
| KSSQSVLYESREKNSVA | WASTRES | QLYMRLPLS | nd / nd / nd | nd | 0/9 |
| KSTQSVRYESRNKNSVA | WASTRES | QQYHRSPLS | 1.83 / 1.86 / 2.03 | 1.90 | 4/9 (3.98) |
| KSSQSVLYESRNKNSVA | WTSTRES | QQLVRLPLS | 3.12 / 2.56 / 2.82 | 2.83 | 4/9 (4.34) |
| KSSQSVLYESRNKNSRA | WASTMES | QQYHRQPLS | nd / nd / nd | nd | 1/9 (3.95) |
| KSSQNVLYESRNKHSVA | WASTRQS | QQYHRLPLS | 1.39 / 1.66 / 1.96 | 1.67 | 1/9 (4.08) |
| KSSQHCLYESRNKNSVA | WASTRES | QQYHRYPLS | nd / nd / nd | nd | 3/9 (4.05) |
| PSSDSVLYESRNKNSVA | WASTRES | QQEHRLPLS | 3.84 / 3.30 / 3.96 | 3.70 | 3/9 (4.56) |
| KSSQSVLYESRGKNSVA | WASTRES | QQYHRLPLS | 0.88 / 1.29 / 1.50 | 1.23 | 0/9 |
| KSSQSVLYESRNKNSVA | WASTEES | QQYHRNPFS | 4.31 / 4.20 / 6.02 | 4.84 | 4/9 (4.23) |
| FSSQSVLYESRNKNSVQ | WASTRES | QQYHRLELS | nd / nd / nd | nd | 0/9 |

Excerpt, the final 3 entries:

CDR-L1,CDR-L2,CDR-L3,"log10 Kd, replicates",mean log10 Kd (nM),control signals
KSSQSVLYESRGKNSVA,WASTRES,QQYHRLPLS,0.88 / 1.29 / 1.50,1.23,0/9
KSSQSVLYESRNKNSVA,WASTEES,QQYHRNPFS,4.31 / 4.20 / 6.02,4.84,4/9 (4.23)
FSSQSVLYESRNKNSVQ,WASTRES,QQYHRLELS,nd / nd / nd,nd,0/9

Background: pairings of library AAYL50 with three empty control strains gave a value in 18% of cases (median 4.19, 5th percentile 2.99). Values in that range, when seen in few replicates, are hard to tell from nonspecific mating. Also given: how often the same scFv was detected with the empty control strains, with their mean in brackets.
For reference, the parent read 0.65 as the reference entry and 1.68 as a member of this library.

Reference: Engelhart et al. 2022, doi:10.1038/s41597-022-01779-4. File: FLAb, binding data.